Laboratory results: PMC7493195 (Journal of medicinal chemistry, 2020)

By UniProt entry, the sequences of proteins in these tests, tags left out.
UniProt P07947, whole entry: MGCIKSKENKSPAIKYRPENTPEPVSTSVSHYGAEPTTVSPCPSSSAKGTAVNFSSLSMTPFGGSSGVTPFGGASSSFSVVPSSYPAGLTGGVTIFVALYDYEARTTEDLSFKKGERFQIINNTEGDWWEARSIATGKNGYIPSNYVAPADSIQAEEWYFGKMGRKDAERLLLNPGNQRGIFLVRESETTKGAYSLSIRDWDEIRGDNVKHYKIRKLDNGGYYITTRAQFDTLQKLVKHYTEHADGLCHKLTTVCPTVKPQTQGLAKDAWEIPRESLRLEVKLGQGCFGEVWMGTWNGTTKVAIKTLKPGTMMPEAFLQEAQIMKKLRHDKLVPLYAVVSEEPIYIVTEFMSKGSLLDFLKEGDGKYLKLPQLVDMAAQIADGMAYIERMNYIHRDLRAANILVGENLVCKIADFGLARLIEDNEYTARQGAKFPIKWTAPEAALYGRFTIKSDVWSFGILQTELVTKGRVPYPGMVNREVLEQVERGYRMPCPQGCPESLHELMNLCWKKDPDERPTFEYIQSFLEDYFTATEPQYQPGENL

Assays:
[1] = tested on: panel of 468 human kinases; assay type: binding
[2] = target: YES1 (Homo sapiens, UniProt P07947); conditions: H1975 and HCC827 cells, 1 μM, 2 h
[3] = target: SRC (Mus musculus, UniProt P05480); conditions: 3 doses of 5 mg/kg IP, 2 and 4 h after last dose
[4] = tested on: MDA-MB-231, H1975 and HCC827 cells; conditions: 72 h, three cell lines

SMILES	inhibition of MEK family kinases [1]	number of kinases inhibited [1]	cellular engagement of YES1 [2]	SRC binding and inhibition in spleen [3]	growth inhibitory potency, in words [4]
C=CC(=O)Nc1ccccc1Nc1nc(Nc2ccc(N3CCN(C)CC3)cc2)ncc1C(=O)Nc1c(C)cccc1Cl [Compound 15a, 4-((2-Acrylamidophenyl)amino)-N-(2-chloro-6-methylphenyl)-2-((4-(4-methylpiperazin-1-yl)phenyl)amino)pyrimidine-5-carboxamide]	not inhibited	around 20 kinases	potential covalent target	SRC binding and inhibition at both 2 and 4 h postdosing	
CCC(=O)Nc1ccccc1Nc1nc(Nc2ccc(N3CCN(C)CC3)cc2)ncc1C(=O)Nc1c(C)cccc1Cl [Compound 20f, N-(2-Chloro-6-methylphenyl)-2-((4-(4-methylpiperazin-1-yl)-phenyl)amino)-4-((2-propionamidophenyl)amino)pyrimidine-5-carboxamide]					weaker potency compared to 15a
